In patent publication US20240041877A1, “DOSAGE REGIME AND METHOD FOR TREATING PULMONARY ARTERIAL HYPERTENSION” (Altavant Sciences GmbH, priority 2019, published 2024):
Several values for one entry are separate records, joined by “and”; a condition that tells them apart may be missing. Identical values can stand only once. Entries after “also recorded” stand apart in the source; their conditions may differ.

What was measured:
[1] = Thermodynamic stability of crystalline forms of KAR5585; assay type: physicochemical; conditions: particularly at temperatures of less than 95° C.
[2] = Study KAR5585-101 Part 1 (SAD): plasma pharmacokinetics after a single oral dose of KAR5585, fasting and fed (incl. dose proportionality and food effect); conditions: for AUC(0-t): human, po
[3] = Part 2 (MAD): plasma pharmacokinetics after BID oral KAR5585 for 14 days (incl. accumulation ratios and dose proportionality); conditions: for AUC0-24: Geo. Mean
[4] = tested on: urine 5-HIAA (a PD marker of 5-HT synthesis); assay: Part 2 (MAD) biomarker: urine 5-HIAA/24 hours (measured, adjusted, estimated, per gram creatinine); assay type: in vivo, human; conditions: exception: relative change on Day 14, 100 mg fasting group
Excerpt: (§1) Biomarkers were to be evaluated in Part 2 by measuring concentrations of serotonin (5-hydroxytryptamine [5-HT]) in serum and 5-hydroxyindoleacetic acid (5-HIAA) in plasma and urine. As well, the relationship of biomarkers to PK parameters was to be evaluated.
(§2) The biomarker analysis was to be based on the Biomarker Population (all subjects with evaluable biomarker measurements at baseline [Day 1 predose] and at least one after dosing [Day 7 or Day 14]).
(§3) Biomarker data were to be collected only in Part 2. The following biomarkers were to be analyzed: • Serum 5-HT • Plasma 5-HIAA • Urine 5-HIAA/24 hours (as measured, adjusted, estimated, and per gram creatinine)
(§4) Summary statistics (mean, standard deviation [SD], median, minimum [Min], and maximum [Max]) were to be tabulated for each biomarker, by Cohort, with absolute and relative (%) changes from Day 1 predose. […]
The biomarker portion of the study was conducted in Part 2 MAD using the Biomarker Population. The biomarkers evaluated were serum 5-HT and plasma 5-HIAA, as well as urine 5-HIAA/24 hours (as measured, adjusted, estimated, and per gram creatinine). Urinary 5-HIAA was determined by a validated (21 C.F.R. 58, GLP-compliant) method using liquid chromatographic separation and tandem mass spectrometry detection. […]

serum 5-HT = assay: Part 2 (MAD) biomarker: serum 5-HT change from Day 1 predose; assay type: in vivo, human
Excerpt: as §1, §2, §3, §4
The biomarker portion of the study was conducted in Part 2 MAD using the Biomarker Population. The biomarkers evaluated were serum 5-HT and plasma 5-HIAA, as well as urine 5-HIAA/24 hours (as measured, adjusted, estimated, and per gram creatinine). Urinary 5-HIAA was determined by a validated (21 C.F.R. 58, GLP-compliant) method using liquid chromatographic separation and tandem mass spectrometry detection.

clinical = conditions: human, in vivo, 400 mg/dose
[5] = 100 mg to 700 mg dose (7-fold increase in dose), fasting
[6] = 400 mg KAR5585, Cohort 3B (test) vs 3A (reference)
[7] = 400 mg KAR5585 single dose, Cohorts 3B vs 3A
[8] = 700 mg to 2000 mg (2.86-fold increase in dose), fasting
[9] = 100 mg (Cohort 2) to 400 mg (Cohort 4), 4-fold increase in dose, fed

CCOC(=O)[C@@H]1CC2(CCN(c3cc(O[C@H](c4ccc(Cl)cc4-c4ccccc4)C(F)(F)F)nc(N)n3)CC2)CN1 [Form 3, (S)-ethyl 8-(2-amino-6-((R)-1-(5-chloro-[1,1′-biphenyl]-2-yl)-2,2,2-trifluoroethoxy)pyrimidin-4-yl)-2,8-diazaspiro[4.5]decane-3-carboxylate]
thermodynamic stability relative to Form 1 [1]: substantially greater thermodynamic stability compared to Form 1

CCOC(=O)[C@@H]1CC2(CCN(c3cc(O[C@H](c4ccc(Cl)cc4-c4ccccc4)C(F)(F)F)nc(N)n3)CC2)CN1 [KAR5585, (S)-ethyl 8-(2-amino-6-((R)-1-(5-chloro-[1,1′-biphenyl]-2-yl)-2,2,2-trifluoroethoxy)pyrimidin-4-yl)-2,8-diazaspiro[4.5]decane-3-carboxylate]
fold increase in mean AUC0-24 [2, 5]: 8.7 fold | fold increase in mean AUC0-inf [2, 5]: 8.8 fold | AUC0-inf, Geometric LS Mean Ratio (fed/fasting) [2, 6]: 3.14 | AUC0-tau, Geometric LS Mean Ratio (fed/fasting) [2, 6]: 4.84 | exposure as assessed by AUC0-tau and AUC0-inf, fed relative to fasting ([2]; 400 mg KAR5585 single dose): 3.1-4.8 fold | fold increase in Cmax, fed vs fasting [2, 7]: 3.2 fold | peak mean concentration under fed relative to fasting conditions, % higher [2, 7]: approximately 320% | fold increase in AUC0-24 [2, 8]: 1.86 fold | fold increase in AUC0-inf [2, 8]: 1.78 fold | AUC(0-t) ([2]; in vivo, 2000 mg, Plasma AUC0-96, KAR5585 in plasma, 2000 mg KAR5585 single oral dose, mean): 779 ng·h/mL | AUC(0-t) ([2]; plasma, 100 mg, AUC0-12, 100 mg KAR5585 single oral, fasted, Cohort 1, Geo. Mean): 46.2 ng·h/mL | AUC(0-t) ([2]; plasma, 100 mg, AUC0-12, 100 mg KAR5585 single oral, fasted, Cohort 1, Mean): 48.1 ng·h/mL | AUC(0-t) ([2]; plasma, 100 mg, AUC0-24, 100 mg KAR5585 single oral, fasted, Cohort 1, Geo. Mean): 47.5 ng·h/mL | AUC(0-t) ([2]; plasma, 100 mg, AUC0-24, 100 mg KAR5585 single oral, fasted, Cohort 1, Mean): 49.6 ng·h/mL | AUC(0-t) ([2]; plasma, 100 mg, Plasma AUC0-96, KAR5585 in plasma, 100 mg KAR5585 single oral dose, mean): 49.7 ng·h/mL | AUC(0-t) ([2]; plasma, 200 mg, AUC0-12, 200 mg KAR5585 single oral, fasted, Cohort 2, Geo. Mean): 83.3 ng·h/mL | AUC(0-t) ([2]; plasma, 200 mg, AUC0-12, 200 mg KAR5585 single oral, fasted, Cohort 2, Mean): 85.8 ng·h/mL | AUC(0-t) ([2]; plasma, 200 mg, AUC0-24, 200 mg KAR5585 single oral, fasted, Cohort 2, Geo. Mean): 93.4 ng·h/mL | AUC(0-t) ([2]; plasma, 200 mg, AUC0-24, 200 mg KAR5585 single oral, fasted, Cohort 2, Mean): 97.1 ng·h/mL | AUC(0-t) ([2]; plasma, 200 mg, Plasma AUC0-96, KAR5585 in plasma, 200 mg KAR5585 single oral dose, mean): 100 ng·h/mL | AUC(0-t) ([2]; plasma, 400 mg, AUC0-12, 400 mg KAR5585 single oral, fasted, Cohort 3A, Geo. Mean): 231 ng·h/mL | AUC(0-t) ([2]; plasma, 400 mg, AUC0-12, 400 mg KAR5585 single oral, fasted, Cohort 3A, Mean): 246 ng·h/mL | AUC(0-t) ([2]; plasma, 400 mg, AUC0-12, 400 mg KAR5585 single oral, fed, Cohort 3B, Geo. Mean): 756 ng·h/mL | AUC(0-t) ([2]; plasma, 400 mg, AUC0-12, 400 mg KAR5585 single oral, fed, Cohort 3B, Mean): 761 ng·h/mL | AUC(0-t) ([2]; plasma, 400 mg, AUC0-24, 400 mg KAR5585 single oral, fasted, Cohort 3A, Geo. Mean): 283 ng·h/mL | AUC(0-t) ([2]; plasma, 400 mg, AUC0-24, 400 mg KAR5585 single oral, fasted, Cohort 3A, Mean): 297 ng·h/mL | AUC(0-t) ([2]; plasma, 400 mg, AUC0-24, 400 mg KAR5585 single oral, fed, Cohort 3B, Geo. Mean): 876 ng·h/mL | AUC(0-t) ([2]; plasma, 400 mg, AUC0-24, 400 mg KAR5585 single oral, fed, Cohort 3B, Mean): 885 ng·h/mL | AUC(0-t) ([2]; plasma, 400 mg, Plasma AUC0-96, KAR5585 in plasma, 400 mg (Fasted) KAR5585 single oral dose, mean): 303 ng·h/mL | AUC(0-t) ([2]; plasma, 400 mg, Plasma AUC0-96, KAR5585 in plasma, 400 mg (Fed) KAR5585 single oral dose, mean): 917 ng·h/mL | AUC(0-t) ([2]; plasma, 700 mg, AUC0-12, 700 mg KAR5585 single oral, fasted, Cohort 4, Geo. Mean): 372 ng·h/mL | AUC(0-t) ([2]; plasma, 700 mg, AUC0-12, 700 mg KAR5585 single oral, fasted, Cohort 4, Mean): 392 ng·h/mL | AUC(0-t) ([2]; plasma, 700 mg, AUC0-24, 700 mg KAR5585 single oral, fasted, Cohort 4, Geo. Mean): 409 ng·h/mL | AUC(0-t) ([2]; plasma, 700 mg, AUC0-24, 700 mg KAR5585 single oral, fasted, Cohort 4, Mean): 432 ng·h/mL | AUC(0-t) ([2]; plasma, 700 mg, Plasma AUC0-96, KAR5585 in plasma, 700 mg KAR5585 single oral dose, mean): 436 ng·h/mL | AUC(0-t) ([2]; plasma, 1200 mg, AUC0-12, 1200 mg KAR5585 single oral, fasted, Cohort 5, Geo. Mean): 356 ng·h/mL | AUC(0-t) ([2]; plasma, 1200 mg, AUC0-12, 1200 mg KAR5585 single oral, fasted, Cohort 5, Mean): 402 ng·h/mL | AUC(0-t) ([2]; plasma, 1200 mg, AUC0-24, 1200 mg KAR5585 single oral, fasted, Cohort 5, Geo. Mean): 400 ng·h/mL | AUC(0-t) ([2]; plasma, 1200 mg, AUC0-24, 1200 mg KAR5585 single oral, fasted, Cohort 5, Mean): 453 ng·h/mL | AUC(0-t) ([2]; plasma, 1200 mg, Plasma AUC0-96, KAR5585 in plasma, 1200 mg KAR5585 single oral dose, mean): 463 ng·h/mL | AUC(0-t) ([2]; plasma, 2000 mg, AUC0-12, 2000 mg KAR5585 single oral, fasted, Cohort 6, Geo. Mean): 558 ng·h/mL | AUC(0-t) ([2]; plasma, 2000 mg, AUC0-12, 2000 mg KAR5585 single oral, fasted, Cohort 6, Mean): 624 ng·h/mL | AUC(0-t) ([2]; plasma, 2000 mg, AUC0-24, 2000 mg KAR5585 single oral, fasted, Cohort 6, Geo. Mean): 696 ng·h/mL | fold increase in mean AUC0-12, Day 1 [3, 9]: 5.1 fold | fold increase in mean AUC0-12, Day 14 [3, 9]: 3.1 fold | fold increase in mean AUC0-24, Day 1 [3, 9]: 3.6 fold | fold increase in mean AUC0-24, Day 14 [3, 9]: 3.6 fold and 3.63 fold | fold increase in mean Cmax, Day 1 [3, 9]: 4.4 fold | fold increase in mean Cmax, Day 14 [3, 9]: ~3.0 fold | RAUC0-12 (accumulation ratio for AUC0-12), range Day 7/Day 1 and Day 14/Day 1 ([3]; 100 mg KAR5585 BID): 2.75-3.32 | RAUC0-12 (accumulation ratio for AUC0-12), range Day 7/Day 1 and Day 14/Day 1 ([3]; 200 mg KAR5585 BID): 0.76-0.93 | RAUC0-12 (accumulation ratio for AUC0-12), range Day 7/Day 1 and Day 14/Day 1 ([3]; 400 mg KAR5585 BID): 1.6-2.01 | AUC0-24 ([3]; 400 mg/dose Fasted Cohort 4, Day 1 PM): 760 ng·h/mL | AUC0-24 ([3]; 400 mg/dose Fasted Cohort 4, Day 7 PM): 870 ng·h/mL | difference of absolute and relative changes from Day 1 in measured urine 5-HIAA vs placebo, significance ([4]; Days 7 and 14): statistically significant in favor of KAR5585 in all dose groups except one | mean differences vs placebo of absolute and relative changes from Day 1 to Day 14 in urine 5-HIAA/24 hours, significance [4]: statistically significant in favor of KAR5585 in all dose groups except one | mean difference vs placebo of absolute and relative changes from Day 1 to Day 14 in serum 5-HT concentration, significance (serum 5-HT): statistically significant in favor of KAR5585 compared to placebo for the 400 mg fed and all KAR5585 doses pooled; also recorded: statistically significant for the highest dose group (400 mg fed) and for all KAR5585 doses pooled | AUC(0-t) (clinical): 808 ng·h/mL
